According to patent publication US12665203B2, “Organo-metallic analytes for nonaqueous redox flow batteries” (The Regents of the University of California, priority 2020, dated 2026):
Several values for one entry are separate records, joined by “and”; a condition that tells them apart may be missing. Equal values may be shown once.

Key:
[1] = Solubility of complexes in MeCN by UV-Vis of saturated solutions; conditions: saturated solution in MeCN
[2] = Stability of complex in acetonitrile; format: physicochemical; conditions: MeCN

Substance: (I2P2^−)(I2P^−)Al [compound 1]
- Cactive (solubility in MeCN) [1]: 19.8 mM

Substance: [(I2P^−)2Al][PF6]
- Cactive (solubility in MeCN) [1]: 97 mM and 96.7 ± 2.1 mM

Substance: [(I2P^−)(I2P)Al][AlCl4]2 [compound 3]
- stability of complex in acetonitrile [2]: limited
- Cactive (solubility in MeCN) [1]: 450-550 mM and 450-550 ^a mM
